Test system: Caco2 cellular line
Experiment: Permeability on the Caco2 cellular line
Assay type: in vitro ADME

Cimetidine [reference compound] was tested, and the BA/AB ratio was 4.2, the “Papp A→B (nm/sec) Mean ± SD” value (Apical (pH 6.5) → Basolateral (pH 7.4)) was 5.8 ± 0.4 nm/s and the “A→B Mean mass balance %” value (A→B) was 63%. For the same substance, the “B→A Mean mass balance %” value (B→A) was 111% and the “Papp B→A (nm/sec) Mean ± SD” value (B→A) was 24.5 ± 3.4 nm/s.
